Data reported in ChEMBL document CHEMBL1145061, “New potential uroselective NO-donor alpha1-antagonists” (J Med Chem, 2003).

Chains of the proteins cited; added tags and fusions are not shown.
UniProt P08908, whole entry: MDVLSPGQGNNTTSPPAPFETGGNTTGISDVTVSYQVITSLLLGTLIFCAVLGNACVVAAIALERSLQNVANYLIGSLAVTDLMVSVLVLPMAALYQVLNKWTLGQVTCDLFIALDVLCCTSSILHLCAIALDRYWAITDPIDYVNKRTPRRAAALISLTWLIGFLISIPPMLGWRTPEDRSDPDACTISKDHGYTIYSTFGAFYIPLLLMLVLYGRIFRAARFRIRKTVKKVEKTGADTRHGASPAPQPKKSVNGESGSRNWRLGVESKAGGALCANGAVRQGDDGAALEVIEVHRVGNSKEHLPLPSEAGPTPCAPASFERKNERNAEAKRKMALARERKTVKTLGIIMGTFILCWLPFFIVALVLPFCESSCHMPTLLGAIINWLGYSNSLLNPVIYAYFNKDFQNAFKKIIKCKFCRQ

Legend:
[1] = biological target: T1, Alpha-1A adrenergic receptor (Homo sapiens, UniProt P35348); assay: Inhibition of [3H]prazosin binding to cloned human Alpha-1A adrenergic receptor in CHO cells (chinese hamster ovary cells); type: cell-based
T1 sequence (P35348 whole entry): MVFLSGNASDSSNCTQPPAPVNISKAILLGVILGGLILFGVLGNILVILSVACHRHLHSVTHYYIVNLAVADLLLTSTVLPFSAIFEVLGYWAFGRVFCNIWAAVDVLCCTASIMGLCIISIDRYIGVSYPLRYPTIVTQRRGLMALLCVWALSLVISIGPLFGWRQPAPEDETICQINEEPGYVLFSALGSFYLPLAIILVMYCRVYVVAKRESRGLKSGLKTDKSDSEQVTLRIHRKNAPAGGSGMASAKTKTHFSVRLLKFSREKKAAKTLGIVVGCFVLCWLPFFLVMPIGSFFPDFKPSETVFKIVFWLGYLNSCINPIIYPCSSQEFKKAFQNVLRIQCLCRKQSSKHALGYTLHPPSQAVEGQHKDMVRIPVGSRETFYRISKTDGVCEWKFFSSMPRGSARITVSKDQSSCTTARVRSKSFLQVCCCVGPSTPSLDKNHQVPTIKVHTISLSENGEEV
Outline: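 Membranes from CHO cells expressing cloned human α1a, α1b or α1d subtypes, [3H]prazosin competition binding. Ki from two to three experiments, each in triplicate, agreeing within 20%.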

[2] = biological target: 5-hydroxytryptamine receptor 1A (Homo sapiens, UniProt P08908); assay: Inhibition of [3H]8-OH-DPAT binding to 5-hydroxytryptamine 1A receptor serotonergic receptor in human HeLa cells; type: cell-based
Outline: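 Membranes from HeLa cells expressing the cloned human 5-HT1A receptor, [3H]-8-OH-DPAT competition binding. Ki from two to three triplicate experiments, agreeing within 20%.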

Ki [1]: 0.34 nM
Ki [2]: 5.9 nM
Structure (SMILES): COc1ccccc1N1CCN(CCCNC(=O)c2cccc3c(=O)c(C)c(-c4ccccc4)oc23)CC1 [UPIDOSIN]
